Data taken from PubChem BioAssay (Tox21).
This is a selection; strong and weak results do not stand in their true shares. Inconclusive results are not listed. The source made the active and inactive calls. Unless noted, the call rests on the fitted dose curve; in most records, active means well fitted inhibition curve with a large enough effect in the repeat runs; inconclusive means weak or mixed curves; inactive means flat fitted curve, though single readings scatter.

By UniProt entry, the sequences of proteins in these tests, tags left out. Where a name states a change or a piece, a line headed by the entry shows the natural chain unless it says otherwise.
UniProt P08659, whole entry, looked up: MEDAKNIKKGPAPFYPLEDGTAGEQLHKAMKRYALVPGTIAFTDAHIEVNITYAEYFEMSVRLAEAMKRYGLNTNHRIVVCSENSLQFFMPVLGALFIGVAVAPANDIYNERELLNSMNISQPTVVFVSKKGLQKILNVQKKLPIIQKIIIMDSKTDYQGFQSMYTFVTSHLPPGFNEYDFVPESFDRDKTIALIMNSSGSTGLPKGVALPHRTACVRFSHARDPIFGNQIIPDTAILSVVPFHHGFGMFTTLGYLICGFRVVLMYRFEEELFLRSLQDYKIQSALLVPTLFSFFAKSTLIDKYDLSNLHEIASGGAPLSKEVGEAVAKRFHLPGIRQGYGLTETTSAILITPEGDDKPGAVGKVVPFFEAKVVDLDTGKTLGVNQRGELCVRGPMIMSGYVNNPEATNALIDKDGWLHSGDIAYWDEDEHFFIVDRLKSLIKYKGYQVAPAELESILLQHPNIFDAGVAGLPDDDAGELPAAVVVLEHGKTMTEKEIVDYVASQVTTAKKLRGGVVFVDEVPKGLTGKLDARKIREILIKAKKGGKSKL
UniProt Q12809: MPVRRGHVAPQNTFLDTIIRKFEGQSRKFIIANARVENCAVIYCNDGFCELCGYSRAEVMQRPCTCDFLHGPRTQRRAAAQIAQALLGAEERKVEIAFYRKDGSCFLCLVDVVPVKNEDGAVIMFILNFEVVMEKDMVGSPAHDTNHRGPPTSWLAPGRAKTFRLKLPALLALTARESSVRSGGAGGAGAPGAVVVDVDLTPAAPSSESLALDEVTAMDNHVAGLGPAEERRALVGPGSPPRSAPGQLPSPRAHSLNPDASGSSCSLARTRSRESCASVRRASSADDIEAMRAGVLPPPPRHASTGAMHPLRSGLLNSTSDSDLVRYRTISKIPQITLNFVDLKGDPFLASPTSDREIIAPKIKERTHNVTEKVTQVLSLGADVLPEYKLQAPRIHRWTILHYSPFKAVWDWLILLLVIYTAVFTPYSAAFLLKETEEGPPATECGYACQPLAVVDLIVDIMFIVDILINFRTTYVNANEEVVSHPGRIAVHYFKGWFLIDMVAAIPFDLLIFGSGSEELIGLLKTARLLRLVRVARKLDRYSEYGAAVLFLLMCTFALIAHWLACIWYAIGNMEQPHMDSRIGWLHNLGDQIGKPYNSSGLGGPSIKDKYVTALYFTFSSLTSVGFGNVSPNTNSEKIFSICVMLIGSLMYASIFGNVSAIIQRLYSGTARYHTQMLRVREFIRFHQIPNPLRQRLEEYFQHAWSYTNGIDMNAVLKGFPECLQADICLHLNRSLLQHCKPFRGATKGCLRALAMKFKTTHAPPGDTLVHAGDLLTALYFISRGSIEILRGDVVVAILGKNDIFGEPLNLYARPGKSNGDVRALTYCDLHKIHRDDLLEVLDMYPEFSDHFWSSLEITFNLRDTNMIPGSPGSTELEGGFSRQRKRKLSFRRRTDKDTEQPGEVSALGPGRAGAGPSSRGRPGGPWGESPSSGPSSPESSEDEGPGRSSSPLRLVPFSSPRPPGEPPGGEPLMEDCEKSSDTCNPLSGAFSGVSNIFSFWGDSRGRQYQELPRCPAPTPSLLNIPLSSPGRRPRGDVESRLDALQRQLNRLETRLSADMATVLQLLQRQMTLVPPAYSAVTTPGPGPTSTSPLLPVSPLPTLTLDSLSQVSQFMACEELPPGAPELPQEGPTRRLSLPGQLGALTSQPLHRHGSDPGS

Key:
[1] = qHTS assay to identify small molecule agonists of the NFkB signaling pathway (AID 1159509; active means well fitted curve in the direction sought with a large enough effect in the signal ratio in the repeat runs, not every such curve was filed as active; the % refers to the signal ratio; further: on the % scale 0 is the no-effect control and ±100 the full control effect); settings: NFkB-bla ME-180 cells, beta-lactamase FRET ratio, 5 h
Summary of the method: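 Pathway activation was measured in ME-180 cells stably expressing beta-lactamase under NF-kB response element control. Substrate cleavage was read as the 460/530 nm emission shift after 5 hr compound incubation.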

[2] = target: Luciferin 4-monooxygenase (Photinus pyralis) (UniProt P08659); assay: qHTS assay to identify small molecule inhibitors of firefly luciferase (AID 1224835); further: potency means the concentration at half of the fitted maximal effect; nearly all actives have a fitted effect of over 25% in size; settings: purified P. pyralis luciferase, luminescence inhibition
Summary of the method: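 Biochemical qHTS: compounds run as interplate titrations against purified firefly enzyme, with D-luciferin and ATP each at its KM concentration. Light output recorded by CCD imaging.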

[3] = target: Voltage-gated inwardly rectifying potassium channel KCNH2 (Homo sapiens) (UniProt Q12809); assay: Human Ether-a-go-go-Related Gene (hERG) channel small molecule antagonists: fluorescence cell-based qHTS assay (AID 1671200); settings: hERG-U2OS cells, FluxOR thallium flux fluorescence; further: potency means the concentration at half of the fitted maximal effect; nearly all actives have a fitted effect of over 50% in size
Summary of the method: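 First, 1000 cells per well are seeded and cultured overnight at 37 C. Next, FluxOR II dye is loaded for 1 h at room temperature, protected from light. After 10 more minutes, stimulus is added and fluorescence is read.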

In the case of CCCN[C@H]1CCc2nc(N)sc2C1, the activation ([1]; at 61 µM (top of the series)) is reported as inactive: 0.0418%.

For O=c1c(O)c(-c2ccc(O)c(O)c2)oc2cc(O)cc(O)c12, the activation ([1]; at 61 µM (top of the series)) was inactive: -0.104% and the activation ([1]; at 78.8 µM (top of the series)) was inactive: 1.21%.

For CN(C)c1ccc(C(=C2C=CC(=[N+](C)C)C=C2)c2ccccc2)cc1, the Potency [2] was active: 27.5 µM [middle of 4 runs].

For O=C1Cc2cc(CCN3CCN(c4nsc5ccccc45)CC3)c(Cl)cc2N1, the Potency [3] was active: 4.77 µM.
